This assay has as its target Histamine H3 receptor (Homo sapiens, UniProt Q9Y5N1). The experiment in a line: Displacement of [3H] N-alpha methylhistamine from human recombinant histamine H3 receptor expressed in HEK293 cells measured after 90 mins. Type of assay: cell-based. (In general: Loss of bound radioactivity is the signal in a displacement assay; it reports binding, not function.)

Sequences of proteins named here, by UniProt entry; tags and fusion partners are left off. A change or cut given only in a name is not applied to a line headed by its entry.
UniProt Q9Y5N1: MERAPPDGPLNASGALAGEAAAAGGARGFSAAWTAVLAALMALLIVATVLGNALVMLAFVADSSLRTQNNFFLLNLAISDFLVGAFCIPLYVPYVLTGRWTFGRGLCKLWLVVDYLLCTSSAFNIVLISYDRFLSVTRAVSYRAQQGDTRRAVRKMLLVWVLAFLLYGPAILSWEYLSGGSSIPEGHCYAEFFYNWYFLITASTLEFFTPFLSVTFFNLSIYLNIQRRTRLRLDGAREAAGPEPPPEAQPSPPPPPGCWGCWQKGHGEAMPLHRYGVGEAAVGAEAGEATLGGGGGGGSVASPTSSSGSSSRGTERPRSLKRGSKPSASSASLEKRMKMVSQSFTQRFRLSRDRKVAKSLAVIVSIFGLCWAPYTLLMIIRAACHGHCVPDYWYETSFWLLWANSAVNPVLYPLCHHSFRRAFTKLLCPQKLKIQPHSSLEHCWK

pKi: −log10 of the molar value.

The term pKi denotes the Ki on a negative log10 scale, so that one unit is a factor of ten.

Consider `O=C(c1ccc(OCCCc2cnc[nH]2)cc1)C1CC1` [CIPROXIFAN], for which the pKi is 6.65.

For the origin of these results see ChEMBL document CHEMBL5032500, “Adenosine A2AR/A1R Antagonists Enabling Additional H3R Antagonism for the Treatment of Parkinson's Disease” (J Med Chem, 2021).
